# Measurements from publication PMC12715805, “Screening apelin analogues and a small molecule agonist as effective cardiovascular therapeutics against reperfusion injury” (RSC Medicinal Chemistry, 2025).
# How the values were obtained:
# Format in all cases: cell-based
# apelinR / human Gαi2 = molecular target: T1, apelinR / human Gαi2 (Homo sapiens, UniProt P35414); assay: ebBRET Gαi2 activation; settings: HEK293 cells transfected with apelinR, human Gαi2, Rap1GAP-RlucII, rGFP-CAAX; 10 min at 37 °C; mean ± SEM of 5 to 6 independent experiments
# T1 sequence (P35414 1-380): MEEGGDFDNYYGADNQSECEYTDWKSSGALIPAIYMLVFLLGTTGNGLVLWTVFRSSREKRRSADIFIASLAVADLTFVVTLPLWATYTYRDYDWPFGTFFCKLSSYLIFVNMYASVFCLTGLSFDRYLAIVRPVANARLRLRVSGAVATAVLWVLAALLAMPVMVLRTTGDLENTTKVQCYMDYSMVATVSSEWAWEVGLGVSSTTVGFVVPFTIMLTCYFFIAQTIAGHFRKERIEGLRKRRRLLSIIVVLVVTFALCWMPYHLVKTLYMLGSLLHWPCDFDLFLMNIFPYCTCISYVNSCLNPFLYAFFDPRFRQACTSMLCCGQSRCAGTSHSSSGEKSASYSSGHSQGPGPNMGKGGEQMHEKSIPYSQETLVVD
# apelinR / β-arrestin1 = molecular target: T2, apelinR / β-arrestin1 (Homo sapiens, UniProt P35414); assay: ebBRET β-arrestin1 recruitment; settings: HEK293 cells transfected with apelinR, β-arrestin1-RlucII, rGFP-CAAX; 10 min at 37 °C; mean ± SEM of 5 to 6 independent experiments
# T2 sequence (P35414 1-380): T1 sequence (P35414 1-380)
# apelinR / β-arrestin2 = molecular target: T3, apelinR / β-arrestin2 (Homo sapiens, UniProt P35414); assay: ebBRET β-arrestin2 recruitment; settings: HEK293 cells transfected with apelinR, β-arrestin2-RlucII, rGFP-CAAX; 10 min at 37 °C; mean ± SEM of 5 to 6 independent experiments
# T3 sequence (P35414 1-380): T1 sequence (P35414 1-380)
compound,measurement,setting,value
COc1cccc(OC)c1-n1c(NS(=O)(=O)[C@@H](C)[C@H](C)c2ncc(C)cn2)nnc1-c1cncc(C)c1 [AMG-986],Gαi2 activation log EC50,apelinR / human Gαi2,10.67 ± 0.04
same,β-arr1 recruitment log EC50,apelinR / β-arrestin1,8.96 ± 0.04
same,β-arr2 recruitment log EC50,apelinR / β-arrestin2,9.00 ± 0.03
